Reference: PubChem BioAssay (NCI)
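Compound exposure: 48 hours, 5 concentrations, 96-well plates. The concentration for 50% growth inhibition is given as GI50. TGI marks complete inhibition of growth.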

Columns and labels:
Assay in all cases: inhibition of tumour cell growth, NCI panel, 48 h
786-0 renal = test system: 786-0 renal
A549 NSCLC = test system: A549 NSCLC
ACHN renal = test system: ACHN renal
BT-549 breast = test system: BT-549 breast
CAKI-1 renal = test system: CAKI-1 renal
CCRF-CEM leukemia = test system: CCRF-CEM leukemia
COLO 205 colon = test system: COLO 205 colon
EKVX NSCLC = test system: EKVX NSCLC
HCC-2998 colon = test system: HCC-2998 colon
HCT-116 colon = test system: HCT-116 colon
HCT-15 colon = test system: HCT-15 colon
HL-60(TB) leukemia = test system: HL-60(TB) leukemia
HOP-62 NSCLC = test system: HOP-62 NSCLC
HOP-92 NSCLC = test system: HOP-92 NSCLC
HS 578T breast = test system: HS 578T breast
HT29 colon = test system: HT29 colon
IGROV1 ovarian = test system: IGROV1 ovarian
K-562 leukemia = test system: K-562 leukemia
KM12 colon = test system: KM12 colon
M14 melanoma = test system: M14 melanoma
MALME-3M melanoma = test system: MALME-3M melanoma
MCF7 breast = test system: MCF7 breast
MDA-MB-231 breast = test system: MDA-MB-231 breast
MDA-MB-435 = test system: MDA-MB-435
MOLT-4 leukemia = test system: MOLT-4 leukemia
NCI-H226 lung = test system: NCI-H226 lung
NCI-H23 lung = test system: NCI-H23 lung
NCI-H322M lung = test system: NCI-H322M lung
NCI-H460 lung = test system: NCI-H460 lung
NCI-H522 lung = test system: NCI-H522 lung
NCI/ADR-RES ovarian = test system: NCI/ADR-RES ovarian
OVCAR-3 ovarian = test system: OVCAR-3 ovarian
OVCAR-4 ovarian = test system: OVCAR-4 ovarian
OVCAR-5 ovarian = test system: OVCAR-5 ovarian
OVCAR-8 ovarian = test system: OVCAR-8 ovarian
PC-3 prostate = test system: PC-3 prostate
RPMI-8226 leukemia = test system: RPMI-8226 leukemia
RXF 393 renal = test system: RXF 393 renal
SF-268 CNS = test system: SF-268 CNS
SF-295 CNS = test system: SF-295 CNS
SF-539 CNS = test system: SF-539 CNS
SK-MEL-2 melanoma = test system: SK-MEL-2 melanoma
SK-MEL-28 melanoma = test system: SK-MEL-28 melanoma
SK-MEL-5 melanoma = test system: SK-MEL-5 melanoma
SK-OV-3 ovarian = test system: SK-OV-3 ovarian
SNB-19 CNS = test system: SNB-19 CNS
SNB-75 CNS = test system: SNB-75 CNS
SR leukemia = test system: SR leukemia
SW-620 colon = test system: SW-620 colon
TK-10 renal = test system: TK-10 renal
U251 CNS = test system: U251 CNS
UACC-257 melanoma = test system: UACC-257 melanoma
UACC-62 melanoma = test system: UACC-62 melanoma
UO-31 renal = test system: UO-31 renal

Work on `O=[N+]([O-])C(F)(COC(=S)OCC(F)([N+](=O)[O-])[N+](=O)[O-])[N+](=O)[O-]` yielded a GI50 (786-0 renal) of 15.4 µM, a TGI (786-0 renal) of 30 µM and a GI50 (A549 NSCLC) of 15 µM. For the same molecule, the TGI (A549 NSCLC) was 33.9 µM, the GI50 (ACHN renal) was 11.8 µM and the TGI (ACHN renal) was 25.1 µM. It also gave a GI50 (BT-549 breast) of 19.4 µM, a TGI (BT-549 breast) of 33.6 µM and a GI50 (CAKI-1 renal) of 4.57 µM. For the same molecule, the TGI (CAKI-1 renal) was 15.2 µM, the GI50 (CCRF-CEM leukemia) was 4 µM and the TGI (CCRF-CEM leukemia) was 22.5 µM. The GI50 (COLO 205 colon) was 4.71 µM, the TGI (COLO 205 colon) was 16 µM and the GI50 (EKVX NSCLC) was 17.2 µM. The TGI (EKVX NSCLC) was 31.5 µM, the GI50 (HCC-2998 colon) was 15 µM and the TGI (HCC-2998 colon) was 28.2 µM. The GI50 (HCT-116 colon) was 6.62 µM, the TGI (HCT-116 colon) was 19.6 µM and the GI50 (HCT-15 colon) was 11.1 µM. For the same molecule, the TGI (HCT-15 colon) was 26.6 µM, the GI50 (HL-60(TB) leukemia) was 2730 nM and the TGI (HL-60(TB) leukemia) was 12.1 µM. The GI50 (HOP-62 NSCLC) was 16 µM, the TGI (HOP-62 NSCLC) was 31 µM and the GI50 (HOP-92 NSCLC) was 12.6 µM. The TGI (HOP-92 NSCLC) was 29.2 µM, the GI50 (HS 578T breast) was 15.2 µM and the TGI (HS 578T breast) was 33.2 µM. For the same molecule, the GI50 (HT29 colon) was 15.1 µM, the TGI (HT29 colon) was 47.2 µM and the GI50 (IGROV1 ovarian) was 13 µM. The TGI (IGROV1 ovarian) was 29.2 µM, the GI50 (K-562 leukemia) was 4.96 µM and the TGI (K-562 leukemia) was greater than 100 µM. For the same molecule, the GI50 (KM12 colon) was 14.8 µM, the TGI (KM12 colon) was 29.2 µM and the GI50 (M14 melanoma) was 12.2 µM. For the same molecule, the TGI (M14 melanoma) was 27 µM, the GI50 (MALME-3M melanoma) was 8.34 µM and the TGI (MALME-3M melanoma) was 22 µM. For the same molecule, the GI50 (MCF7 breast) was 12.1 µM, the TGI (MCF7 breast) was 30.4 µM and the GI50 (MDA-MB-231 breast) was 14.3 µM. It also gave a TGI (MDA-MB-231 breast) of 27.4 µM, a GI50 (MDA-MB-435) of 4.94 µM and a TGI (MDA-MB-435) of 21.9 µM. The GI50 (MOLT-4 leukemia) was 6.59 µM, the TGI (MOLT-4 leukemia) was 26.5 µM and the GI50 (NCI-H226 lung) was 17.8 µM. The TGI (NCI-H226 lung) was 34.5 µM, the GI50 (NCI-H23 lung) was 16.8 µM and the TGI (NCI-H23 lung) was 33.8 µM. For the same molecule, the GI50 (NCI-H322M lung) was 21.1 µM, the TGI (NCI-H322M lung) was 54.5 µM and the GI50 (NCI-H460 lung) was 13.1 µM. It also gave a TGI (NCI-H460 lung) of 28.6 µM, a GI50 (NCI-H522 lung) of 3.12 µM and a TGI (NCI-H522 lung) of 10.6 µM. For the same molecule, the GI50 (NCI/ADR-RES ovarian) was 16.9 µM, the TGI (NCI/ADR-RES ovarian) was 37.6 µM and the GI50 (OVCAR-3 ovarian) was 15.3 µM. The TGI (OVCAR-3 ovarian) was 28.9 µM, the GI50 (OVCAR-4 ovarian) was 12.1 µM and the TGI (OVCAR-4 ovarian) was 24.4 µM. The GI50 (OVCAR-5 ovarian) was 20.1 µM, the TGI (OVCAR-5 ovarian) was 36.7 µM and the GI50 (OVCAR-8 ovarian) was 15.3 µM. It also gave a TGI (OVCAR-8 ovarian) of 32 µM, a GI50 (PC-3 prostate) of 13.3 µM and a TGI (PC-3 prostate) of 26.4 µM. The GI50 (RPMI-8226 leukemia) was 2420 nM, the TGI (RPMI-8226 leukemia) was 34.1 µM and the GI50 (RXF 393 renal) was 12.8 µM. The TGI (RXF 393 renal) was 25.7 µM, the GI50 (SF-268 CNS) was 16.2 µM and the TGI (SF-268 CNS) was 31 µM. The GI50 (SF-295 CNS) was 22.3 µM, the TGI (SF-295 CNS) was 44.6 µM and the GI50 (SF-539 CNS) was 15.7 µM. It also gave a TGI (SF-539 CNS) of 30.2 µM, a GI50 (SK-MEL-2 melanoma) of 15.9 µM and a TGI (SK-MEL-2 melanoma) of 30.9 µM. It also gave a GI50 (SK-MEL-28 melanoma) of 17.2 µM, a TGI (SK-MEL-28 melanoma) of 41.3 µM and a GI50 (SK-MEL-5 melanoma) of 6.49 µM. For the same molecule, the TGI (SK-MEL-5 melanoma) was 19.7 µM, the GI50 (SK-OV-3 ovarian) was 29.1 µM and the TGI (SK-OV-3 ovarian) was 63.2 µM. The GI50 (SNB-19 CNS) was 19.8 µM, the TGI (SNB-19 CNS) was 50 µM and the TGI (SNB-75 CNS) was 25 µM. The GI50 (SR leukemia) was 2820 nM, the TGI (SR leukemia) was 11.5 µM and the GI50 (SW-620 colon) was 5.6 µM. The TGI (SW-620 colon) was 28.2 µM, the GI50 (TK-10 renal) was 14.3 µM and the TGI (TK-10 renal) was 28.9 µM. For the same molecule, the GI50 (U251 CNS) was 16.8 µM, the TGI (U251 CNS) was 34.9 µM and the GI50 (UACC-257 melanoma) was 16 µM. The TGI (UACC-257 melanoma) was 34.9 µM, the GI50 (UACC-62 melanoma) was 13.2 µM and the TGI (UACC-62 melanoma) was 27.1 µM. The GI50 (UO-31 renal) was 14.6 µM and the TGI (UO-31 renal) was 27.8 µM.
